Target: RIN1::ABL1 interaction (RIN1-SBP / ABL1-eGFP) (Homo sapiens, UniProt P00519+Q13671)
Assay: TR-FRET assay of RIN1::ABL binding
Conditions: for IC50: read-out: IC50 (M) in TR-FRET assay, 21 hits selected for cell-based assay, concentration-response curves in triplicate
[1] = S4 Table, N-acyl piperidine-4-carboxamide series SAR, RIN1-ABL dose-response curve
[2] = S2 Table, TR-FRET assay, maximal inhibition

Sequences of proteins named here, by UniProt entry; tags and fusion partners are left off. Residues count along the entry.
UniProt P00519, 1-531 isoform 2 limits assumed: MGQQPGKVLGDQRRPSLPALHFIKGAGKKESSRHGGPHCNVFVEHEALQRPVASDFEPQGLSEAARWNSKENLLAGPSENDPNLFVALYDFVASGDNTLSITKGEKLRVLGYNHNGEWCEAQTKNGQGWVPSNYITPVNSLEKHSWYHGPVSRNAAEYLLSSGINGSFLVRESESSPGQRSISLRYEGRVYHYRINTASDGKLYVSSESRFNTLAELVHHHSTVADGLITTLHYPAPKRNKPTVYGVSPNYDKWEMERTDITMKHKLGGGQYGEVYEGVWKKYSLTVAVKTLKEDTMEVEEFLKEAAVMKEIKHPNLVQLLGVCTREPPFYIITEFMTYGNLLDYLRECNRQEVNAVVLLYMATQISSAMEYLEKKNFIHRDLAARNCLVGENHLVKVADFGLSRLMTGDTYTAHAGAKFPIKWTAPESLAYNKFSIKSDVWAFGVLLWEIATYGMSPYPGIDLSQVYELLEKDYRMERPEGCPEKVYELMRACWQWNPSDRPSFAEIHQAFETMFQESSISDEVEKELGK
UniProt Q13671, whole entry: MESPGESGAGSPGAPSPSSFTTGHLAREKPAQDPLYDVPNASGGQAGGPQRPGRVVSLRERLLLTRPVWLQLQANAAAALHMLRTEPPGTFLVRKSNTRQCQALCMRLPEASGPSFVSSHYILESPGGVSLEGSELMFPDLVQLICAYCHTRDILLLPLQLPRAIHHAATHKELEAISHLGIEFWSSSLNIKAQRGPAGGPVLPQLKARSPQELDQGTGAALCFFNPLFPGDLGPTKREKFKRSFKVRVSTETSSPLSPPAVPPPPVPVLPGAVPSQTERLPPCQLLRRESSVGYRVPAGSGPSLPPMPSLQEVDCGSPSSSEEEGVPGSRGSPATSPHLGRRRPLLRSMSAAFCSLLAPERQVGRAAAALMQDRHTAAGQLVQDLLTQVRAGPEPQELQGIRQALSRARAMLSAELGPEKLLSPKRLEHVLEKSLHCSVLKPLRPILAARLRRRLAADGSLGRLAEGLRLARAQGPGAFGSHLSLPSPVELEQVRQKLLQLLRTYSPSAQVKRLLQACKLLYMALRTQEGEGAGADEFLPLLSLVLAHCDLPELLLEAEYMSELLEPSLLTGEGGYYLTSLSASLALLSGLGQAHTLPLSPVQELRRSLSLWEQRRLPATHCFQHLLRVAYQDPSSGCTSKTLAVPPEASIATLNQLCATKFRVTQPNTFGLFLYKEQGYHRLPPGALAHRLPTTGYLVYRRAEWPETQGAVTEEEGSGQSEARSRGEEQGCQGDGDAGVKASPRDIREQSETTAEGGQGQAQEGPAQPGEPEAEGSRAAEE

SMILES | Max response (%) [1] [%] | Max response (%) [2] [%] | IC50 (S2 Table) [M]
O=C(Cc1ccc(NC(=O)C2CCN(C(=O)C3CCCC3)CC2)cc1)Nc1ccc(C(=O)N2CCOCC2)cc1 | 86.36 |  | 
COc1ccc(CCNc2cc(=O)[nH]c(N)n2)cc1 |  | 88.0885 | 4.01e-06
CCN(CC(=O)Nc1ccc(NC(C)=O)cc1)C(=O)c1ccccc1SCc1c(C)noc1C |  | 78.5939 | 
CN(CCc1ccccc1)C(=O)c1ccc(NC(=O)Cc2ccc(NC(=O)C3CCN(C(=O)c4ccccc4)CC3)cc2)cc1 | 83.49 |  | 
CN(CCc1ccccc1)C(=O)c1ccc(NC(=O)Cc2ccc(NC(=O)C3CCN(C(=O)C4CCCC4)CC3)cc2)cc1 | 87.13 |  | 
CSc1ccccc1OCc1cc(C(=O)N2CCNC(=O)C2)no1 |  | 86.5374 | 5.94e-06
Cc1c(C(=O)NCC(c2ccco2)N(C)C)oc2c(Cl)cccc12 (centres unmarked) |  | 77.5362 | 4.68e-06
CN(Cc1c(F)cccc1Cl)C(=O)CNC(=O)c1ccc2c(c1)OCO2 |  | 75.8616 | 3.77e-06
O=c1cc(OCc2ccccc2)cc[nH]1 |  | 100.163 | 1.61e-08
Cc1c(C(=O)NCCN2CCOCC2)oc2ccc(Br)cc12 |  | 70.7009 | 
Cn1c(=O)c2c(nc(-n3ccnc3)n2Cc2ccc(Cl)cc2Cl)n(C)c1=O |  | 103.208 | 4.31e-06
CC(=O)Nc1ccc(NC(=O)C2CCN(C(=O)c3cccs3)CC2)cc1 | 82.17 | 80.8242 | 2.17e-06
O=C(c1cc(COc2cccc3cccnc23)on1)N1CCC[C@H]1CO |  | 52.2034 | 3.02e-07
N#Cc1ccccc1Sc1ccccc1C(=O)NCC(c1ccco1)N1CCCC1 (centres unmarked) |  | 75.6258 | 4.08e-06
CCOC(=O)N1CCC(NC(=O)CCc2nc(C3=CCN(C)CC3)no2)CC1 | 84.52 | 81.367 | 9.41e-06
COc1ccc2oc(C(=O)NCC(c3ccco3)N(C)C)c(C)c2c1 (centres unmarked) |  | 73.3989 | 5.19e-06
CN(C(=O)c1ccc(NC(=O)Cc2ccc(NC(=O)C3CCN(C(=O)C4CC4)CC3)cc2)cc1)C1CC1 | 82.72 |  | 
CCOC(=O)N1CCN(C(=O)Nc2ccc(NC(=O)N3CCN(C(=O)OCC)CC3)cc2)CC1 |  | 63.6586 | 1.11e-05
O=C(Cc1ccc(NC(=O)C2CCN(C(=O)C3CCCCC3)CC2)cc1)Nc1ccc(C(=O)N2CCOCC2)cc1 | 82.92 |  | 
O=C(Cc1ccc(NC(=O)C2CCN(C(=O)c3ccccc3)CC2)cc1)Nc1ccc(C(=O)N2CCOCC2)cc1 | 81.29 |  | 
COc1ccc(Cl)cc1NC(=O)CN(C)C(=O)c1cc(-c2ccncc2)nc2ccccc12 |  | 72.5318 | 

Source: article PMC4374917, “Identification of Small Molecules that Disrupt Signaling between ABL and Its Positive Regulator RIN1” (PLoS ONE, 2015)
